Earlier results on 1 compound are cited in patent publication US6635631B2, “Iron compounds, compositions, methods of making the same and uses thereof” (Vitra Pharmaceuticals, Ltd., priority 1995, dated 2003).

For this data set the following is noted: given on an empty stomach; cited from earlier work.

On to `O=S(=O)([O-])[O-].[Fe+2]` [ferrous sulphate, reference compound], for which the absorption rate is recorded as about 30%.
